Experimental data from patent US20130096170A1 (priority 2011, published 2013).
Several values for one entry are separate records, joined by “and”; a condition that tells them apart may be missing. Equal values may be shown once.

Experiments:
[1] = system: infants 1 to 24 months postoperative from cardiac surgery; assay: Example 5: pharmacodynamics (UMSS, BIS, additional sedation)
[2] = system: intubated and mechanically ventilated pediatric subjects 12 to <24 months; assay: Example 7: pharmacodynamics (UMSS, FLACC, rescue medication, extubation)
[3] = system: intubated and mechanically ventilated pediatric subjects 2 to <17 years; assay: Example 3: pharmacodynamics (RSS, RASS, FLACC, rescue medication, extubation); conditions: for total amount of rescue fentanyl while intubated, mean / total amount of rescue fentanyl while intubated, median / weight-adjusted total amount of rescue fentanyl while intubated, mean / weight-adjusted total amount of rescue fentanyl while intubated, median: full evaluable population
[4] = system: initially intubated and mechanically ventilated neonates ≥28 to ≤44 weeks gestational age; assay: Example 1: sedation/analgesia efficacy in neonates (N-PASS, rescue medication)
[5] = system: initially intubated and mechanically ventilated pediatric subjects 1 month to <17 years; assay: Example 2: sedation efficacy in pediatric ICU subjects (UMSS, rescue medication, extubation); conditions: for median total amount of rescue fentanyl: subjects who required rescue

## Cc1cccc([C@H](C)c2c[nH]cn2)c1C [dexmedetomidine]
[1]; high dose
  amount of fentanyl administered as additional intra-operative sedation agent: 80.20 µg
[1]; low dose
  amount of fentanyl administered as additional intra-operative sedation agent: 99.32 µg
[1]; moderate dose
  amount of fentanyl administered as additional intra-operative sedation agent: 69.32 µg
[2]; Subject 01-0001, dose level 2
  time of first rescue fentanyl after start of infusion: 1.62 h
[2]; Subject 01-0003, dose level 1
  time of first rescue fentanyl after start of infusion: 1.43 h
[2]; Subject 01-0004, dose level 2
  time of first rescue fentanyl after start of infusion: 0.67 h
[3]; Dose Level 1
  total amount of rescue fentanyl while intubated, mean: 49.72 µg
  total amount of rescue fentanyl while intubated, median: 36.00 µg
  weight-adjusted total amount of rescue fentanyl while intubated, mean: 2.24 µg/kg
  weight-adjusted total amount of rescue fentanyl while intubated, median: 1.91 µg/kg
[3]; Dose Level 2
  total amount of rescue fentanyl while intubated, mean: 3575.97 µg
  total amount of rescue fentanyl while intubated, median: 55.00 µg
  weight-adjusted total amount of rescue fentanyl while intubated, mean: 191.13 µg/kg
  weight-adjusted total amount of rescue fentanyl while intubated, median: 2.68 µg/kg
[3]; Dose Level 3
  total amount of rescue fentanyl while intubated, mean: 51.61 µg
  total amount of rescue fentanyl while intubated, median: 30.00 µg
  weight-adjusted total amount of rescue fentanyl while intubated, mean: 2.84 µg/kg
  weight-adjusted total amount of rescue fentanyl while intubated, median: 1.54 µg/kg
[3]; Dose Level 4
  total amount of rescue fentanyl while intubated, mean: 35.46 µg
  total amount of rescue fentanyl while intubated, median: 33.00 µg
  weight-adjusted total amount of rescue fentanyl while intubated, mean: 2.26 µg/kg
  weight-adjusted total amount of rescue fentanyl while intubated, median: 1.75 µg/kg
[3]; Group II, Dose Level 4, of 8 subjects
  subjects who received co-administration of midazolam or fentanyl: 3 subjects
[4]; additional cohort, age Group I, dose level 2
  rescue fentanyl given to the one subject requiring analgesia: 2 μg and 0.98 μg/kg
[4]; group I (levels 1 and 2)
  patients given rescue analgesia with fentanyl: 17%
[4]; group II
  patients given rescue analgesia with fentanyl: 46%
[5]; high dose
  median amount per kg of rescue fentanyl: 3.25 µg/kg
  median total amount of rescue fentanyl: 35.13 µg
[5]; high dose (44/81)
  subjects who received rescue fentanyl for analgesia while intubated: 54.3%
[5]; low dose
  median amount per kg of rescue fentanyl: 4.13 µg/kg
  median total amount of rescue fentanyl: 46.00 µg
[5]; low dose (53/83)
  subjects who received rescue fentanyl for analgesia while intubated: 63.9%
